Measured values reported in PubChem BioAssay AID504634 (The Scripps Research Institute Molecular Screening Center, 2011).
Only a part is listed here, and it is no random draw. Activity calls are given as the source filed them. Rule as the data show it: active = inhibition mostly above about 23% (no sharp cut-off); inactive = mostly below about 18%.

Sequences of proteins named here, by UniProt entry; tags and fusion partners are left off.
UniProt P47898, whole entry: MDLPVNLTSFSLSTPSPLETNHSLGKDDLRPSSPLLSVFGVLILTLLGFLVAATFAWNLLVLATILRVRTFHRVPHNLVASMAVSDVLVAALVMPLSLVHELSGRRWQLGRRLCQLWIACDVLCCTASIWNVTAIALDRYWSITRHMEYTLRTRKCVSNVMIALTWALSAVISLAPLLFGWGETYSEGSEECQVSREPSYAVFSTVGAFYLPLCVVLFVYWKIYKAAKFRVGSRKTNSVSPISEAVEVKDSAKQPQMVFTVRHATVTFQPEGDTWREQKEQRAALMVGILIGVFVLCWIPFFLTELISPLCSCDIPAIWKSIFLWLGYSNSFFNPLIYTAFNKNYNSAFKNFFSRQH

Target: 5-hydroxytryptamine receptor 5A (Homo sapiens) (UniProt P47898)
Test: HTR5A inverse agonists in luminescence cell assay, primary screen, counter-screen for OPRM1-OPRD1 heterodimer inverse agonist project, full-deck HTS (AID 504634);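 also: 0% = cells with DMSO and 100% = no-cell wells with DMSO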
Details: HTR5A cell line, inverse agonism, at 9.3 µM, hits give high values

SMILES	inhibition
O=C(NCC1(N2CCCCC2)CCCCC1)c1cccs1	inactive: -6.84%
O=C(NCC1(N2CCCCC2)CCCCC1)c1ccc(=O)[nH]c1	inactive: 20.4%
COc1ccc(C(=O)NCC2(N3CCCCC3)CCCCC2)c(OC)c1OC	inactive: -0.73%
CC(C)(C)OC(=O)N1CCC(N(C(=O)c2ccccc2)c2ccc(F)cc2)CC1	inactive: -15.4%
COc1ccc(C(=O)NCC2(N3CCCCC3)CCCCC2)cc1	inactive: -10.3%
Cc1cccc(NC2(C#N)CCN(Cc3ccccc3)CC2)c1	inactive: 1.04%
CSc1ccccc1C(=O)NCC1(N2CCCCC2)CCCCC1	inactive: -18.5%
O=C(NCC1(N2CCOCC2)CCCCC1)c1cc2ccccc2o1	inactive: -11.9%
Cc1cc(C)cc(N(C(=O)c2ccccc2)C2CCN(C(=O)OC(C)(C)C)CC2)c1	inactive: 11.3%
O=C(NCC1(N2CCCCC2)CCCCC1)c1ccc(Cl)nc1	inactive: -15.2%
CCOC(=O)N1CCC(Nc2ccc(OC)cc2)CC1	inactive: 32%
COc1ccc(Cl)cc1C(=O)NCC1(N2CCOCC2)CCCCC1	inactive: -6.65%
O=C(OC1CN2CCC1CC2)C1c2ccccc2Oc2ccccc21 (centres undefined)	inactive: -29.4%
O=C(NCC1(N2CCCCC2)CCCCC1)c1ccc(Cl)s1	inactive: 9.04%
N#CC1(Nc2ccccc2)CCN(Cc2ccccc2)CC1	inactive: -9.73%
CCOc1ccc(C)cc1CN(CCCl)CCCl	inactive: 6.67%
O=C1CCN(Cc2ccccc2)CC1	inactive: 2.52%
CCOC(=O)N1CCC(Nc2ccc(F)cc2)CC1	inactive: -4.64%
COc1ccc(NC2CCN(CCc3ccccc3)CC2)c(OC)c1	inactive: -5.67%
O=C(NCC1(N2CCCCC2)CCCCC1)c1ccc(F)cc1	inactive: 17.6%
CCCCOc1ccc(C(=O)NCC2(N3CCOCC3)CCCCC2)cc1	inactive: 3.78%
O=P1(N(CCCl)CCCl)SCCCS1	inactive: -12.7%
COc1cc(C(=O)NCC2(N(C)C)CCCCC2)ccc1OC(F)F	inactive: -5.74%
CCOC(=O)N1CCC(Nc2cccc(C)c2)CC1	inactive: 0.66%
O=C(NCC1(N2CCCCC2)CCCCC1)c1ccc(OC(F)F)cc1	inactive: -45.5%

SMILES	inhibition
O=C(NCC1(N2CCCCC2)CCCCC1)c1cccc([N+](=O)[O-])c1	inactive: -20%
CSc1ccc(C(=O)NCC2(N3CCOCC3)CCCCC2)cc1	inactive: -0.86%
N#CC1(Nc2ccccc2)CCN(CCc2ccccc2)CC1	inactive: -20.3%
CCN1CCC(Nc2ccc(Cl)cc2)CC1	inactive: 9.07%
O=C(NCC1(N2CCCCC2)CCCCC1)c1cccc(C(F)(F)F)c1	inactive: -8.36%
COc1ccc(NC2CCN(C(=O)OC(C)(C)C)CC2)cc1	inactive: -4.4%
CC(C)c1ccc(C(=O)NCC2(N3CCOCC3)CCCCC2)cc1	inactive: 4.08%
CN1CCN(CCOC(=O)C(O)(c2ccccc2)c2ccccc2)CC1	inactive: 2.59%
O=C(NCC1(N2CCOCC2)CCCCC1)c1cc(=O)[nH]c2ccccc12	inactive: 3.93%
COc1cc(C(=O)NCC2(N3CCCCC3)CCCCC2)ccc1OC(F)F	inactive: -14.4%
CN(C)c1cccc(C(=O)NCC2(N3CCCCC3)CCCCC2)c1	inactive: 5.54%
COc1ccc(CN(CCCl)CCCl)cc1Cl	inactive: -8.36%
CC(C)c1ccc(NC2CCN(C(=O)OC(C)(C)C)CC2)cc1	inactive: -11.1%
O=C(NCC1(N2CCOCC2)CCCCC1)c1cc(F)c(F)cc1Cl	inactive: 14.2%
COc1cc(OC)c(C(=O)NCC2(N(C)C)CCCCC2)cc1OC	inactive: 10.8%
O=C(NCC1(N2CCCCC2)CCCCC1)c1cncc(Br)c1	inactive: -3.47%
CN1CCC(Nc2cccc(F)c2)CC1	inactive: 7.08%
CCCOc1ccc(C(=O)NCC2(N(C)C)CCCCC2)cc1OC	inactive: -9.77%
O=C(NCC1(N2CCOCC2)CCCCC1)c1cc(Br)ccc1Cl	inactive: 17.2%
COc1cc(C(=O)NCC2(N3CCOCC3)CCCCC2)cc(OC)c1C	inactive: -23.1%
COc1ccc(C(=O)NCC2(N3CCOCC3)CCCCC2)cc1OC	inactive: -15.6%
N/C(=N\O)c1c(N)no[n+]1[O-]	inactive: 20.5%
CCOC(=O)N1CCC(Nc2ccc(C)cc2)CC1	inactive: -4.56%
O=C(OC1CN2CCC1CC2)C1c2ccccc2C=Cc2ccccc21 (centres undefined)	inactive: 15.5%
CC(C)(C)OC(=O)N1CCC(N(C(=O)c2ccccc2)c2ccc(Cl)cc2)CC1	inactive: -13.4%

SMILES	inhibition
N#Cc1ccc(C(=O)NCC2(N3CCCCC3)CCCCC2)cc1	inactive: -6.15%
CCCN1CCC(Nc2cc(OC)cc(OC)c2)CC1	inactive: -12.9%
Cc1cc(N(CCCl)CCCl)ccc1C=O	inactive: -6.94%
c1ccc(CN2CCC(Nc3ccccc3)CC2)cc1	inactive: 18%
CN(C)C1(CNC(=O)c2cccc(C#N)c2)CCCCC1	inactive: 19.7%
COc1cc(OC)cc(C(=O)NCC2(N3CCCCC3)CCCCC2)c1	inactive: 11.9%
CC(=O)N(c1ccccc1)C1CCNCC1	inactive: 6.38%
Cc1ccc(NC2(C#N)CCN(Cc3ccccc3)CC2)cc1	inactive: 4.21%
Fc1ccccc1NC1CCN(Cc2ccccc2)CC1	inactive: 2.88%
Cc1ccc(C(=O)NCC2(N3CCCCC3)CCCCC2)o1	inactive: 3.34%
CCN1CCC(Nc2cccc(F)c2)CC1	inactive: -0.92%
Cc1ccccc1NC1(C#N)CCN(Cc2ccccc2)CC1	inactive: -5.29%
Cn1c(=O)[nH]cc(N(CCCl)CCCl)c1=O	inactive: -5.72%
CN(C)c1ccc(C(=O)NCC2(N3CCCCC3)CCCCC2)cc1	inactive: -18.2%
O=C(NCC1(N2CCCCC2)CCCCC1)c1ccco1	inactive: -17.5%
CN1CCC(Nc2ccc(F)c(Cl)c2)CC1	inactive: -13.4%
CCOc1ncccc1C(=O)NCC1(N2CCOCC2)CCCCC1	inactive: -10.7%
CCCOc1ccc(C(=O)NCC2(N(C)C)CCCCC2)cc1	inactive: -9.73%
O=C(O)C1(Nc2ccccc2)CCN(Cc2ccccc2)CC1	inactive: -4.26%
CC(C)(C)OC(=O)N1CCC(Nc2ccccc2)CC1	inactive: -4.7%
CCC(CO)(C(=O)OC1CN2CCC1CC2)c1ccccc1 (centres undefined)	inactive: -18.8%
COc1cccc(C(=O)N(c2cc(C)cc(C)c2)C2CCN(C(=O)OC(C)(C)C)CC2)c1	inactive: -4.29%
COc1cc(OC)cc(C(=O)NCC2(N3CCOCC3)CCCCC2)c1	inactive: -18%
CN1CCC(Nc2ccc(Cl)cc2)CC1	inactive: 22.1%
